Data as given in patent publication US20260124309A1, “STAT6 DEGRADERS AND USES THEREOF” (Kymera Therapeutics, Inc., priority 2023, published 2026).

Amino acid sequences for entries named in this document (tags omitted). Residues count along the entry.
UniProt P42226, whole entry: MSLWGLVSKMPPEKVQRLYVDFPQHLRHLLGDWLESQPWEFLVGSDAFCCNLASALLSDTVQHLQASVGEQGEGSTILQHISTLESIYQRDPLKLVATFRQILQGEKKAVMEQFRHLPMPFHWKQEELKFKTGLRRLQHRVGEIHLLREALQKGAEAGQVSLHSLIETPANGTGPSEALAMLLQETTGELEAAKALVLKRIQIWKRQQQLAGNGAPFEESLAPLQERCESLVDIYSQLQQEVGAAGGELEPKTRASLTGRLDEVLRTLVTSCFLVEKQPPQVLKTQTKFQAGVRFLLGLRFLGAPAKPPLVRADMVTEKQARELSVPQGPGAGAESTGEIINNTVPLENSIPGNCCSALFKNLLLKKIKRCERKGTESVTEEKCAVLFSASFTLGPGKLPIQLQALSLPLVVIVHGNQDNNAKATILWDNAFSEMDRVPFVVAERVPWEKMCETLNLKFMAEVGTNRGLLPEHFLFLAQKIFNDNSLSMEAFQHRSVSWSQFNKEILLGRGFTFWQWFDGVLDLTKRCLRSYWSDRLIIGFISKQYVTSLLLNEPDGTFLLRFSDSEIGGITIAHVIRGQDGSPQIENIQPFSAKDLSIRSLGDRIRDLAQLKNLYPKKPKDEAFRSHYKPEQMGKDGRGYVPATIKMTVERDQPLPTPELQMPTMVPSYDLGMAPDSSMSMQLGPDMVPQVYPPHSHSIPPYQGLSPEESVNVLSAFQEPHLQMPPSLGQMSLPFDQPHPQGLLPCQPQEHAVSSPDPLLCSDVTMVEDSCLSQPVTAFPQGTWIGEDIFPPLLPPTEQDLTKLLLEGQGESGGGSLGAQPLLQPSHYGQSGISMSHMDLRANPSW
UniProt P42226, 123-632 limits assumed: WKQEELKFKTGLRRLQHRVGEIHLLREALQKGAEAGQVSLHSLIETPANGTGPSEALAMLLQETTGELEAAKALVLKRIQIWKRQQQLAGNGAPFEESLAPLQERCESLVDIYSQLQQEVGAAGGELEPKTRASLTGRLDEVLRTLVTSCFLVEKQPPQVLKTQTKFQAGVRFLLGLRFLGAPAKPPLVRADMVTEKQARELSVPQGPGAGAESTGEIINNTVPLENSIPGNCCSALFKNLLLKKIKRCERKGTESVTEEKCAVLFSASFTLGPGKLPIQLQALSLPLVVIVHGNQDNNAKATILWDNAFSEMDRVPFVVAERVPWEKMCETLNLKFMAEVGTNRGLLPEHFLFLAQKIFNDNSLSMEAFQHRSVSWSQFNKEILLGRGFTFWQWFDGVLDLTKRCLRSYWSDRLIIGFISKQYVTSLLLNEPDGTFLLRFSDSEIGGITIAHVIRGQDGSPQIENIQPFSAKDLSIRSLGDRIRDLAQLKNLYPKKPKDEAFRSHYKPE

Tests used:
[1] = target: biotinylated truncated STAT6 (123-632)-avi (Homo sapiens, UniProt P42226); experiment: STAT6 HTRF binding assay; conditions: read-out: STAT6 HTRF: Average IC50; HTRF binding, 0.15 nM biotinylated truncated STAT6 (123-632)-avi, 20 nM fluorescein-labeled probe
Description: HTRF binding assays were performed using 0.15 nM biotinylated truncated STAT6 (123-632)-avi purified from E. coli, 1× Streptavidin-terbium (CisBio) prepared by mixing SA-Tb in PPI detection buffer (CisBio), 20 nM proprietary fluorescein-labeled probe, and test compounds in assay buffer consisting of 50 mM HEPES-Na pH 7.5, 100 mM NaCl, 1 mM EDTA, 2 mM DTT, 0.1% Tween-20 with a final volume of 20 uL. Compound stocks were dissolved at 10 mM in 100% DMSO and 11 point titration with 3 fold serial dilution was performed in white, opaque 384 well microplates. Reaction plates were incubated at room temperature for 30 minutes. Plates were centrifuged at low rpm for 5 mins, and the ratio of fluorescence intensities were measured at emission wavelengths for fluorescein acceptor (520 nm) and terbium donor (495 nm) on Envision Plate reader. % Inhibition was calculated from the 520/495 ratio generated by using proprietary positive control compound for 100% inhibition and DMSO only reactions for 0% inhibition. Data was processed and dose response curves were generated using GraphPad Prism to determine the concentration required for inhibiting 50% of the HTRF signal (IC50).
The letter codes for IC50 (μM) include: A (<0.1 μM); B (0.1-1 μM); C (>1-10 μM); D (>10-100 μM); E (>100 μM); and F (not tested).

[2] = target: STAT6 (Homo sapiens, UniProt P42226); experiment: STAT6 MSD degradation in A549 cells; conditions: for DC50: read-out: STAT6 MSD degradation DC50 (nM) 24 h
Description: Degradation of STAT6 in cells was quantitatively measured using Meso Scale Discovery (MSD) technology. A549 cells were seeded in 96-well plates with a density of 1.5×10e4 to 5×10e5 cells per well in 100 μl fresh media. Compounds were then added to the assay plates with a final top concentration of up to 10 uM in a 1:3 dilution series with total of 9 doses. The assay plates were then incubated for 4 to 24 hours at 37° C. under 5% CO2. The assay plates were then centrifuged for 5 minutes and the cell pellets were treated with 100 μl/well RIPA lysis buffer (Boston Bioproducts, BP-115D) with protease and phosphatase inhibitors (Roche, 05892791001 and 04906837001). To prepare the MSD assay plates (MSD, L15XA), the plates were coated with the capture antibody (Abnova, H00006778) in PBS, at 40 μl/well. The plates were then incubated overnight at 4° C., washed 1 time with 150 μl/well TBST buffer (Cell Signaling Technology, #9997S) and blocked with 150 μl/well blocking buffer (MSD, R93BA-4). Cell lysates were then added to MSD assay plates and the plates were incubated at room temperature for 1 hour. The plates were then washed 3 times with 150 μl/well TBST buffer and 25 μl/well primary detection antibody (Cell Signaling Technology, #5397S). The assay plates were then incubated at room temperature for 1 hour, washed 3 times with 150 μl/well TBST buffer, and 25 μl/well secondary detection antibody, SULFO-TAG anti-rabbit antibody (MSD, R32AB-1) were added. The assay plates were then incubated at room temperature for 1 hour, washed 3 times with 150 μl/well TBST buffer, and 150 μl/well MSD reading buffer (MSD, R92TC-2) were added. The plates were then analyzed by an MSD reader. The data was analyzed by GraphPad Prism and the dose dependent STAT6 degradation was fit using the four-parameter inhibitor vs. response nonlinear regression.
The letter codes for DC50 (nM) include: A (<1 nM); B (1-10 nM); C (>10-100 nM); D (>100-1000 nM); E (>1000 nM); and F (not tested). The letter codes for Dmax (oo) include: A (>90%); B (>70-90%); C (>50-70%); D ([…]); and F (not tested).

Row | SMILES | pIC50 [1] | STAT6 MSD degradation Dmax % 24 h [2] | DC50 [2]
1 | COc1cc(CCC2CCN(c3ccc(C4CCC(=O)NC4=O)cc3F)CC2)ccc1-c1cc(C2=CCCN(C(=O)CCn3ccnn3)C2)c(F)c2[nH]c(C(=O)N(C)C)cc12 (stereo not drawn) | > 7.00 | A (A (>90%)) | < 1 nM
2 | COc1cc(N2CCN(c3ccc(-c4cc([C@@H]5CCCN(C(=O)CCn6cccn6)C5)c(F)c5[nH]c(C(=O)N(C)C)cc45)c(F)c3F)CC2)c(F)cc1NC1CCC(=O)NC1=O (stereo partly drawn) | 4.00 to 5.00 | B (B (>70-90%)) | 10 to 100 nM
3 | COc1cc(C2CCN(c3ccc(C4CCC(=O)NC4=O)cc3F)CC2)ccc1-c1cc(C2=CCCN(C(C)=O)C2)c(F)c2[nH]c(C(=O)N(C)C)cc12 (stereo not drawn) | 6.00 to 7.00 | B (B (>70-90%)) | 1 to 10 nM
4 | CC(C)C(=O)N1CCC=C(c2cc(-c3ccc(N4CCN(CCc5cccc6c5n(C)c(=O)n6C5CCC(=O)NC5=O)CC4)cc3OC(F)(F)F)c3cc(C(=O)N(C)C)[nH]c3c2F)C1 (stereo not drawn) | 5.00 to 6.00 | A (A (>90%)) | < 1 nM
5 | COc1cc(C2CCN(c3cc(Cl)c(-c4cc(C5=CCCN(C(=O)CCn6cccn6)C5)c(F)c5[nH]c(C(=O)N(C)C)cc45)cc3F)CC2)c(F)cc1NC1CCC(=O)NC1=O (stereo not drawn) | 6.00 to 7.00 | A (A (>90%)) | 1 to 10 nM
6 | COc1cc(N2CCN(CCCCCCCCCCCCCCN(C(=O)[C@H]3CCCN(c4cncc5ccccc45)C3)c3ccc(=O)n(CC(=O)O)c3)CC2)ccc1-c1cc(C2=CCCN(C(=O)CCn3ccnn3)C2)c(F)c2[nH]c(C(=O)N(C)C)cc12 | > 7.00 | B (B (>70-90%)) | 10 to 100 nM
7 | CC(=O)N1CCC=C(c2cc(-c3cc(F)c(N4CCN(CCc5cccc6c(C7CCC(=O)NC7=O)nn(C)c56)CC4)cc3Cl)c3cc(C(=O)N(C)C)[nH]c3c2F)C1 (stereo not drawn) | 4.00 to 5.00 | B (B (>70-90%)) | 1 to 10 nM
8 | Cc1cc(C2CCN(c3cccc4c3n(C)c(=O)n4C3CCC(=O)NC3=O)CC2)ccc1-c1cc(C2=CCCN(C(=O)CCn3ccnn3)C2)c(F)c2[nH]ccc12 (stereo not drawn) | 4.00 to 5.00 | B (B (>70-90%)) | 1 to 10 nM
9 | COc1cc(N2CCC3(CCN(c4cc(F)c(-c5cc(C6=CCCN(C(=O)CCn7cccn7)C6)c(F)c6[nH]c(C(=O)N(C)C)cc56)cc4F)CC3)CC2)c(F)cc1NC1CCC(=O)NC1=O (stereo not drawn) | > 7.00 | A (A (>90%)) | 1 to 10 nM
10 | COc1cc(C2CCN(c3cccc4c(C5CCC(=O)NC5=O)nn(C)c34)CC2)ccc1-c1cc(C2=CCCN(C(C)=O)C2)c(F)c2[nH]c(C(=O)N(C)C)cc12 (stereo not drawn) | 5.00 to 6.00 | A (A (>90%)) | < 1 nM
11 | COc1cc([C@H]2CC[C@H](c3ccc(-c4cc(C5=CCCN(C(=O)CCn6cccn6)C5)c(F)c5[nH]c(C(=O)N(C)C)cc45)c(F)c3)CC2)c(F)cc1NC1CCC(=O)NC1=O (relative stereo) | 5.00 to 6.00 | B (B (>70-90%)) | 1 to 10 nM
12 | Cn1c(=O)n(C2CCC(=O)NC2=O)c2cccc(N3CC4(CCN(c5ccc(-c6cc([C@H]7CCCN(C(=O)CCn8cccn8)C7)c(F)c7[nH]c(C(=O)N8CCC8)cc67)cc5)CC4)C3)c21 (stereo partly drawn) | 5.00 to 6.00 | A (A (>90%)) | 1 to 10 nM
13 | COc1cc(N2CCC(c3ccc(-c4cc(C5=CCCN(C(=O)CCn6cccn6)C5)c(F)c5[nH]c(C(=O)N(C)C)cc45)cc3)CC2)c(F)cc1NC1CCC(=O)NC1=O (stereo not drawn) | > 7.00 | A (A (>90%)) | 1 to 10 nM
14 | CN(C)C(=O)c1cc2c(-c3ccc(C#Cc4ccc(NC5CCC(=O)NC5=O)cc4F)cc3)cc(C3=CCCN(C(=O)CCn4ccnn4)C3)c(F)c2[nH]1 (stereo not drawn) | > 7.00 | B (B (>70-90%)) | < 1 nM
15 | Cc1nn(C2CCC(=O)NC2=O)c2cccc(CCN3CCN(c4ccc(-c5cc(C6=CCCN(C(=O)C(C)C)C6)c(F)c6[nH]c(C(=O)N(C)C)cc56)c(F)c4)CC3)c12 (stereo not drawn) | 5.00 to 6.00 | A (A (>90%)) | 1 to 10 nM
16 | CC(C)C(=O)N1CCC=C(c2cc(-c3ccc(N4CCN(CCc5cccc6c(C7CCC(=O)NC7=O)nn(C)c56)CC4)cc3F)c3cc(C(=O)N(C)C)[nH]c3c2F)C1 (stereo not drawn) | 5.00 to 6.00 | A (A (>90%)) | 1 to 10 nM
17 | CN(C)C(=O)c1cc2c(-c3ccc(N4CCN(C5CCN(c6ccc(C7CCC(=O)NC7=O)cc6F)CC5)CC4)cc3F)cc(C3=CCCN(C(=O)CCn4cccn4)C3)c(F)c2[nH]1 (stereo not drawn) | > 7.00 | A (A (>90%)) | < 1 nM
18 | CN(C)C(=O)c1cc2c(-c3ccc(N4CCC5(CC4)CN(c4ccc(C(=O)NC6CCC(=O)NC6=O)cc4Cl)C5)cc3)cc(C3=CCCN(C(=O)CCn4cccn4)C3)c(F)c2[nH]1 (stereo not drawn) | 6.00 to 7.00 | B (B (>70-90%)) | 1 to 10 nM
19 | CN(C)C(=O)c1cc2c(-c3ccc(N4CCN(CCc5ccc(C6CCC(=O)NC6=O)cc5F)CC4)cc3OC(F)(F)F)cc(C3=CCCN(C(=O)CCn4ccnn4)C3)c(F)c2[nH]1 (stereo not drawn) | > 7.00 | A (A (>90%)) | < 1 nM
20 | CN(C)C(=O)c1cc2c(C3CCC4(CC3)CCN(c3cccc5c3n(C)c(=O)n5C3CCC(=O)NC3=O)CC4)cc(C3=CCCN(C(=O)CCn4cccn4)C3)c(F)c2[nH]1 (stereo not drawn) | > 7.00 | A (A (>90%)) | < 1 nM
21 | COc1cc(C2CCN(c3cccc4c3c(C)nn4C3CCC(=O)NC3=O)CC2)ccc1-c1cc(C2=CCCN(C(C)=O)C2)c(F)c2[nH]c(C(=O)N(C)C)cc12 (stereo not drawn) | 6.00 to 7.00 | B (B (>70-90%)) | 1 to 10 nM
22 | COc1cc(N2CCN(c3ccc(-c4cc([C@H]5CCCN(C(=O)CCn6cccn6)C5)c(F)c5[nH]c(C(=O)N(C)C)cc45)c(F)c3F)CC2)c(F)cc1NC1CCC(=O)NC1=O (stereo partly drawn) | > 7.00 | A (A (>90%)) | < 1 nM
23 | COc1cc(N2CCN(c3ccc(-c4cc(C5=CCCN(C(=O)CCn6cccn6)C5)c(F)c5[nH]c(C(=O)N(C)C)cc45)cc3F)CC2)c(F)cc1NC1CCC(=O)NC1=O (stereo not drawn) | > 7.00 | B (B (>70-90%)) | < 1 nM
24 | Cn1c(=O)n(C2CCC(=O)NC2=O)c2cccc(C3CC(N4CCN(c5ccc(-c6cc([C@H]7CCCN(C(=O)CCn8cccn8)C7)c(F)c7[nH]c(C(=O)N8CCC8)cc67)cc5)CC4)C3)c21 (stereo partly drawn) | 6.00 to 7.00 | A (A (>90%)) | < 1 nM
25 | CC(=O)N1CCC=C(c2cc(-c3ccc(N4CCN(CCc5cccc6c5n(C)c(=O)n6C5CCC(=O)NC5=O)CC4)cc3C(F)(F)F)c3cc(C(=O)N(C)C)[nH]c3c2F)C1 (stereo not drawn) | 6.00 to 7.00 | A (A (>90%)) | < 1 nM
26 | COc1cc(C2CCN(c3cccc4c3n(C)c(=O)n4C3CCC(=O)NC3=O)CC2)ccc1-c1cc(C2=CCCN(C(=O)CCn3ccnn3)C2)c(F)c2[nH]ccc12 (stereo not drawn) | 5.00 to 6.00 | B (B (>70-90%)) | 1 to 10 nM
27 | CN(C)C(=O)c1cc2c(-c3ccc(N4CCN(C5CCN(c6ccc(C7CCC(=O)NC7=O)cc6F)CC5)CC4)cc3)cc(C3=CCCN(C(=O)CCn4cccn4)C3)c(F)c2[nH]1 (stereo not drawn) | > 7.00 | A (A (>90%)) | < 1 nM
28 | C[C@H](Cn1cccn1)C(=O)N1CCC=C(c2cc(-c3ccc(C4CCN(c5ccc(NC6CCC(=O)NC6=O)cc5F)CC4)cc3)c3cc(C(=O)N(C)C)[nH]c3c2F)C1 (stereo partly drawn) | 6.00 to 7.00 | B (B (>70-90%)) | 1 to 10 nM

pIC50: −log10 of the molar value.
